Assays:
[1] = target: Beta-2 adrenergic receptor (Cavia porcellus, UniProt Q8K4Z4)
[2] = target: Beta-1 adrenergic receptor (Homo sapiens, UniProt P08588)

The chains behind the UniProt entries cited, without tags or fusion partners.
UniProt Q8K4Z4, whole entry: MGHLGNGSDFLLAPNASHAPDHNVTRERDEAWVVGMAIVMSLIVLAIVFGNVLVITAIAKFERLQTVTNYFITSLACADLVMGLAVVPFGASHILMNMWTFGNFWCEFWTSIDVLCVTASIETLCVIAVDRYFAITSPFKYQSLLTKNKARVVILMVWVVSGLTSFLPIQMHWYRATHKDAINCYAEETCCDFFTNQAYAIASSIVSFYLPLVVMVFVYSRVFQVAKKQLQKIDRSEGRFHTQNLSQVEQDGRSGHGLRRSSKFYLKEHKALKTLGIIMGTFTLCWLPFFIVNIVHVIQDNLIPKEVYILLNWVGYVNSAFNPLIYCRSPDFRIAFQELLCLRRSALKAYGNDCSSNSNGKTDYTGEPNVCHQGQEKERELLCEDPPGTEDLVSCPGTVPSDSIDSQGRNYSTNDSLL
UniProt P08588, whole entry: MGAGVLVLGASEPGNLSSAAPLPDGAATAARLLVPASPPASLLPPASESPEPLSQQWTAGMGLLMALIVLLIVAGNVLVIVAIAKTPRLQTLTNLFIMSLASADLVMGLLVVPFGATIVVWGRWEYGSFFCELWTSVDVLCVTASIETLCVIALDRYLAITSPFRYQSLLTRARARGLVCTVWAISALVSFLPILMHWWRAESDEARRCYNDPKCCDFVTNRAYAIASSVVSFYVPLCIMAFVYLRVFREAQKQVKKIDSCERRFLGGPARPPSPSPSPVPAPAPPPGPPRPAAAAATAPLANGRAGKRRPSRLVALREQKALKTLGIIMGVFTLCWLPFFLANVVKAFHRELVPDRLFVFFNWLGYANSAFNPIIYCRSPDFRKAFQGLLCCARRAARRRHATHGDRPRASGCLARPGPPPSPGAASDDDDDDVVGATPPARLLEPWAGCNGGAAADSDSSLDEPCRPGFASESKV

Ki [1] [nM] | Ki [2] [nM] | Structure (SMILES)
2400 | – | CC(C)(C)NCC(O)c1ccc(O)c(CO)c1 (racemic) [Levalbuterol]
– | 5.24 | COc1c(I)cc(CC2NCCc3cc(O)c(O)cc32)cc1I (configuration not stated) [TMQ, 3',5'-Diiodo]

— BindingDB's records for PubMed 7915318 (Ohio State University, 1994)
